This passage reports IC50 results from patent US10280171B2, “Heterocyclic inhibitors of PTPN11” (priority 2016, dated 2019).

Protein sequences, listed by entry. Tags and fused reporters are not part of them.
UniProt Q06124, whole entry E76K: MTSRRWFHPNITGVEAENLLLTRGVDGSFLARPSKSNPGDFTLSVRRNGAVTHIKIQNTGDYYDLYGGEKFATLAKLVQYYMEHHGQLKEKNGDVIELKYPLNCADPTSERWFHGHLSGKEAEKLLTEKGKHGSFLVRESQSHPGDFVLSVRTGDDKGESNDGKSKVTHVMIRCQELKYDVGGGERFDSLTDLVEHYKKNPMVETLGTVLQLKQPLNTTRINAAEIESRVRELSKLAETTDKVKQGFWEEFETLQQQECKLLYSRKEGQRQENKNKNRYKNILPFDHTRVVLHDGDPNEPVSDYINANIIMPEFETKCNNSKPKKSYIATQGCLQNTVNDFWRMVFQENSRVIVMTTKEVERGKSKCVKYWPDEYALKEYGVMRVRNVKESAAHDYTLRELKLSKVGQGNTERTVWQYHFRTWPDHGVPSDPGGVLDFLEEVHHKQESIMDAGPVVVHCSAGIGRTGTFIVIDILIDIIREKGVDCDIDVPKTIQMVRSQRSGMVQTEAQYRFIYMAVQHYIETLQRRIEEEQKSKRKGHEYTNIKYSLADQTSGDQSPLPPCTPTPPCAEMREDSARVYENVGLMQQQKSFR

Test [1] relates to Phospho-ERK levels in KYSE-520 cells. Description: pERK AlphaScreen Protocol. The note with it: Homo sapiens, KYSE-520, 2 h, 2 hr compound incubation, phospho-ERK1/2 AlphaScreen SureFire. It is filed as cell-based. Here is the method: KYSE-520 cells (10 k cells/well) were grown in 384-well plate in 20 uL of medium (RPMI-1640, without phenol red, containing 10% FBS) at 37° C. with 5% CO2 overnight. DMSO (control) or increasing concentrations of compounds were diluted in medium, added to the 384-well plate (5 uL/well, final DMSO concentration of 1%), and cells were then incubated with compounds for 2 hr. Phospho-ERK levels were measured using phospho-ERK1/2 AlphaScreen SureFire (PerkinElmer, TGRESB10K) following manufacturer's recommendations. Dose-response curves were analyzed using IC50 regression curve fitting (GeneData Screener). Curves were normalized to a high control without inhibitor (DMSO only), and low control (1 μM selumetinib).

Test [2] has as its target PTPN11-E76K mutant enzyme (Homo sapiens (Human), UniProt Q06124, E76K). Nature of the test: PTPN11 Enzymatic Assay (DiFMUP phosphatase activity). It is filed as biochemical. To be noted: full length PTPN11-E76K mutant enzyme 250 pM, DiFMUP 50 μM, 30 min preincubation. The protocol:
Reaction was initiated by addition of DiFMUP (50 μM) at room temperature in 384-well black plate with a final reaction volume of 20 uL in assay buffer. […] Dose-response curves were analyzed using IC50 regression curve fitting (GeneData Screener). Curves were normalized to a high controls without inhibitor, and low controls without enzyme.

Each structure is given as a SMILES string.

By IC50 is commonly meant the point on the concentration scale where inhibition reaches its midpoint.

As for `N[C@@H]1CCCC12CCN(c1cnc3c(-c4ccncc4Cl)n[nH]c3n1)CC2` [Example 56, (R)-8-(3-(3-chloro-pyridin-4-yl)-1H-pyrazolo[3,4-b]-pyrazin-6-yl)-8-azaspiro[4.5]decan-1-amine], the values for the concentration for half-maximal inhibition (IC50) in test [1] and in test [2] were 200 nM and 552 nM, respectively.
